Results: patent US20200157092A1, “[1,2,4]-TRIAZOLO [1,5-A]-PYRIMIDINYL DERIVATIVES SUBSTITUTED WITH PIPERIDINE, […] […] OGA INHIBITORS” (priority 2017, published 2020)

Amino acid sequences for entries named in this document (tags omitted).
UniProt O60502, whole entry: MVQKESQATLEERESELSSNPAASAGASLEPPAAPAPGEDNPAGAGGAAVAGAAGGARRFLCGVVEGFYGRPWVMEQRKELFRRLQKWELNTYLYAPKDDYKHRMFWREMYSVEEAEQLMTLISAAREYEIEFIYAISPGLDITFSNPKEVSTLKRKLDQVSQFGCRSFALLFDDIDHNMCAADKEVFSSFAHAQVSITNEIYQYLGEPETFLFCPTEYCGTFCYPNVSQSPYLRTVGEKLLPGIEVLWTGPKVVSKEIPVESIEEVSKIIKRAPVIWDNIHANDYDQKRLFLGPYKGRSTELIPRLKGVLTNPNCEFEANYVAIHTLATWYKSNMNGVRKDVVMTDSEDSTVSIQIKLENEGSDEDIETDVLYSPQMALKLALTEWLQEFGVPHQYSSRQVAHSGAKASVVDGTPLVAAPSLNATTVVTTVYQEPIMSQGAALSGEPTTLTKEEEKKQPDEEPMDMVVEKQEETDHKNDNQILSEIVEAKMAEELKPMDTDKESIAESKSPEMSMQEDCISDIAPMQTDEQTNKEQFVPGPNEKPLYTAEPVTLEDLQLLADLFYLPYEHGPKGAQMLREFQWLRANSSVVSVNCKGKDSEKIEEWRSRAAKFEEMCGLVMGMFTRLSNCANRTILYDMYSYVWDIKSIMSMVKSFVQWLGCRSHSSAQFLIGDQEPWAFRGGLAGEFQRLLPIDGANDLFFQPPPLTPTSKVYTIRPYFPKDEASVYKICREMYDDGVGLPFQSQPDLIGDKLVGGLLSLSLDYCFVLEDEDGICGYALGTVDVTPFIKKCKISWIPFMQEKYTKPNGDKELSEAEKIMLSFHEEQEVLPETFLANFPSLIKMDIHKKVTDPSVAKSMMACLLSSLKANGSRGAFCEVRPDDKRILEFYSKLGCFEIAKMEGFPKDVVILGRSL

Experiments:
[1] = target: recombinant human Meningioma Expressed Antigen 5 (MGEA5), also referred to as O-GlcNAcase (OGA) (Homo sapiens, UniProt O60502); assay: OGA biochemical assay: inhibition of FM-GlcNAc hydrolysis, fluorescence; protocol A (10 nM OGA, 1 h) or protocol B (2 nM OGA, 6 h)
OGA = OGA (Homo sapiens, UniProt O60502); assay: OGA cellular assay: immunocytochemical detection of O-GlcNAcylated proteins in HEK293 cells inducible for P301L mutant human Tau; format: cell-based; conditions: 6 hours incubation; for Cellular Emax (%): maximum = Thiamet G 200 uM
[2] = Enzymatic protocol B (2 nM OGA, 6 h)
[3] = Enzymatic protocol A (10 nM OGA, 1 h)

In the case of `CC(=O)Nc1ncc(CN2CCCC(c3cc4ccn(C)c4nc3C)C2)s1` (single isomer, unassigned) [102], the “Enzymatic Emax (%)” value [1, 2] is reported as 88.86% and the “Enzymatic hOGA; pIC50” value [1, 2] is reported as 5.76.

In the case of `CC(=O)Nc1ncc(CN2CCC[C@H](c3cnc4ccn(C)c4c3)C2)s1`, the “Enzymatic Emax (%)” value [1, 2] is reported as 90.73% and the “Enzymatic hOGA; pIC50” value [1, 2] is reported as 5.93.

With `CC(=O)Nc1ncc(CN2CCCC(c3ccnc4ccn(C)c34)C2)s1` (single isomer, unassigned) the “Enzymatic Emax (%)” value [1, 2] was 93.19% and the “Enzymatic hOGA; pIC50” value [1, 2] was 6.09.

For `CC(=O)Nc1ncc(CN2CCCC(Cc3cnc4cc[nH]c4c3)C2)s1` (single isomer, unassigned) [98], the “Enzymatic hOGA; pIC50” value [1, 2] was 7.42, the “Cellular hOGA; pEC50” value (OGA) was 6.12 and the “Cellular Emax (%)” value (OGA) was 49.85%.

`CC(=O)Nc1ncc(S(=O)(=O)N2CCOC(c3cc(C)nc4ncnn34)C2)s1` (single isomer, unassigned) was tested, and the “Enzymatic Emax (%)” value [1, 3] was 106.42%, the “Enzymatic hOGA; pIC50” value [1, 3] was 8.20 and the “Cellular hOGA; pEC50” value (OGA) was less than 5. The “Cellular Emax (%)” value (OGA) was 23.67%.

In the case of `CC(=O)Nc1ncc(CN2CCCC(c3ccnc4cc[nH]c34)C2)s1` (single isomer, unassigned), the “Enzymatic Emax (%)” value [1, 2] is reported as 76.38% and the “Enzymatic hOGA; pIC50” value [1, 2] is reported as 5.43.

For `CC(=O)Nc1ncc(CN2CCCC(c3nc(C)cc4ccn(C)c34)C2)s1` (single isomer, unassigned) [89], the “Enzymatic Emax (%)” value [1, 2] was 102.02% and the “Enzymatic hOGA; pIC50” value [1, 2] was 7.37.

In the case of `CC(=O)Nc1ncc(CN2CCCC(c3nc(C)cc4cc[nH]c34)C2)s1` (single isomer, unassigned), the “Enzymatic Emax (%)” value [1, 2] is reported as 88.90% and the “Enzymatic hOGA; pIC50” value [1, 2] is reported as 5.63.

In the case of `CC(=O)Nc1ncc(CN2CCCC(c3nc(C)cc4ccn(C)c34)C2)s1` (single isomer, unassigned) [90], the “Enzymatic Emax (%)” value [1, 2] is reported as 74.60% and the “Enzymatic hOGA; pIC50” value [1, 2] is reported as 5.42.

`CC(=O)Nc1ncc(CN2CCCC(Cc3cnc4cc[nH]c4c3)C2)s1` (single isomer, unassigned) [99] was tested, and the “Enzymatic Emax (%)” value [1, 2] was 101.31%, the “Enzymatic hOGA; pIC50” value [1, 2] was 8.96 and the “Cellular hOGA; pEC50” value (OGA) was 8.17. For the same compound, the “Cellular Emax (%)” value (OGA) was 107.53%.

In the case of `CC(=O)Nc1ncc(CN2CCC[C@@H](c3cnc4cc[nH]c4c3)C2)s1`, the “Enzymatic Emax (%)” value [1, 2] is reported as 97.25% and the “Enzymatic hOGA; pIC50” value [1, 2] is reported as 6.06.

`CC(=O)Nc1ncc(CN2CCCC(c3cc4ccn(C)c4nc3C)C2)s1` (single isomer, unassigned) [103] was tested, and the “Enzymatic Emax (%)” value [1, 2] was 100.60%, the “Enzymatic hOGA; pIC50” value [1, 2] was 8.53 and the “Cellular hOGA; pEC50” value (OGA) was 8.24. The “Cellular Emax (%)” value (OGA) was 102.71%.

In the case of `CC(=O)Nc1ncc(CN2CCCC(c3cc(C)nc4ccn(C)c34)C2)s1` (single isomer, unassigned), the “Enzymatic Emax (%)” value [1, 2] is reported as 94.20% and the “Enzymatic hOGA; pIC50” value [1, 2] is reported as 5.87.

`CC(=O)Nc1ncc(CN2CCC[C@H](c3ccnc4cc[nH]c34)C2)s1` was tested, and the “Enzymatic Emax (%)” value [1, 2] was 101.11% and the “Enzymatic hOGA; pIC50” value [1, 2] was 7.66.

For `CC(=O)Nc1ncc(S(=O)(=O)N2CCO[C@@H](c3cc(C)nc4ncnn34)C2)s1`, the “Enzymatic Emax (%)” value [1, 3] was 99.24%, the “Enzymatic hOGA; pIC50” value [1, 3] was 6.78 and the “Cellular hOGA; pEC50” value (OGA) was less than 5. For the same compound, the “Cellular Emax (%)” value (OGA) was 8.12%.

For `CC(=O)Nc1ncc(CN2CCCC(c3cc(C)nc4cc[nH]c34)C2)s1` (single isomer, unassigned), the “Enzymatic Emax (%)” value [1, 2] was 101.27%, the “Enzymatic hOGA; pIC50” value [1, 2] was 8.19 and the “Cellular hOGA; pEC50” value (OGA) was 8.59. For the same compound, the “Cellular Emax (%)” value (OGA) was 99.79%.

For `CC(=O)Nc1ncc(CN2CCC[C@@H](c3cc4cc[nH]c4nc3C)C2)s1`, the “Enzymatic Emax (%)” value [1, 2] was 96.53% and the “Enzymatic hOGA; pIC50” value [1, 2] was 6.06.
